# Measured values from patent US20130303575A1, “ADMINISTRATION OF AN INHIBITOR OF HDAC” (priority 2007, published 2013).
# Marks after values point to notes of the source that are not given here.
# Assay: Plasma pharmacokinetics of oral SNDX-275 in adults with advanced acute leukemias (Example 3)
# Type: in vivo, human
smiles,measurement,setting,value
"Nc1ccccc1NC(=O)c1ccc(CNC(=O)OCc2cccnc2)cc1 [SNDX-275, N-(2-aminophenyl) 4-[N-(pyrid-3-yl)methyloxycarbonylaminomethyl]benzamide]",CL/F (mean and SD),"4 mg/m^2, first dose, with food, 7 patients",40.9 ± 17.2^ L/h
same,CL/F (mean and SD),"6 mg/m^2, first dose, with food, n = 5",34.4 ± 11.5^a L/h
same,CL/F (mean and SD),"8 mg/m^2, first dose, with food, n = 10",66.7 ± 54.5^b L/h
same,CL/F (mean and SD),"10 mg/m^2, first dose, with food, n = 5",68.2 ± 25.4^c L/h
same,CL/F (mean and SD),"All doses, n = 27",54.0 ± 37.2^d L/h
